Measurements reported in patent US20040229379A1, “Assay” (priority 2003, published 2004).
pKd: −log10 of the molar value.

Sequences of proteins named here, by UniProt entry; tags and fusion partners are left off.
UniProt Q16654, whole entry: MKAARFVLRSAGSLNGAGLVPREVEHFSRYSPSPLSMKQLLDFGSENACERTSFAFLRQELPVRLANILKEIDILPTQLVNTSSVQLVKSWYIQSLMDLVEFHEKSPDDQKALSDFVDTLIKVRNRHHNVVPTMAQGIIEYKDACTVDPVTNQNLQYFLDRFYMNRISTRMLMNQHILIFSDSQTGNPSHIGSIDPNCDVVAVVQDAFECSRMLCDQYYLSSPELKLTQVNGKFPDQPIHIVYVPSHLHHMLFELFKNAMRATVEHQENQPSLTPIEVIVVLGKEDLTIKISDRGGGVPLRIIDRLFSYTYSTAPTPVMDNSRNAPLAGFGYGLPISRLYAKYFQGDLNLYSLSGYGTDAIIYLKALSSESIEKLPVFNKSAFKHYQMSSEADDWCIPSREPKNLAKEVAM

Tests used:
PDHK2 = PDHK2 (Homo sapiens, UniProt Q15119); test: Saturation binding assay (Kd determination) by fluorescence polarisation, PDHK2; details: read-out: Kd of binding to PDHK2; constant concentration (10 nM) of fluorescent binder, serial dilutions of PDHK2; tested form: HCl
Procedure: Recombinant PDHK-2 protein was generated by infection of Hi5 insect cells with a baculovirus encoding an N-terminally his-tagged version of PDHK-2 (amino acids 10-407). Cells were infected at a MOI of 10 for 48 h. Cell pellets were harvested and extracted in 50 mM Tris (pH 8.0), 150 mM NaCl, 5 mM mercaptoethanol, 20 mM imidazole (pH 8.0) and standard protease inhibitors. Soluble protein was purified by affinity chromatography on a Ni-chelate column. PDHK-2 was eluted from the Ni-column using a 40-500 mM gradient of imidazole (pH 8.0). The resulting protein was >95% pure.
(§1) The assay buffer consisted of 20 mM potassium phosphate, pH 7.8, containing 1 mM CHAPS. A 10 mM stock solution of fluorescent binder A was prepared in DMSO and further diluted to 40 nM in assay buffer (final DMSO concentration 0.004%). PDHK2 was diluted over the concentration range 2 μM to 0.5 nM and PDHK4 from 8 μM to 2 nM. […] Polarization values were then determined in a BMG PolarStar plate reader.
(§2) Serial dilutions of PDHK were prepared over the final concentration range 500-0.49 nM for PDHK2 and 2000 to 1.95 nM for PDHK4 using halving dilutions. […] Plates were shaken, and, after incubation for 60 min, read in the Polarstar Galaxy, as described above for the competition assay. […]

PDHK4 = PDHK4 (Homo sapiens, UniProt Q16654); test: Saturation binding assay (Kd determination) by fluorescence polarisation, PDHK4; details: read-out: Kd of binding to PDHK4; constant concentration (10 nM) of fluorescent binder, serial dilutions of PDHK4; tested form: HCl
Procedure: Recombinant PDHK-4 protein was generated by expression in BL21pLysS bacterial cells. Full length PDHK-4 amplified from human skeletal muscle cDNA library (Clontech) was cloned into an N-terminally his-tagged pET vector (Novagen) and transformed into BL21 cells (BL21 plys5, Novagen). Cultures were allowed to reach an OD600 of 0.6 before induction of PDHK expression by the addition of 1 mM IPTG. The cultures were incubated for a further 5 h at 30° C. with 220 rpm shaking. Bacterial cell pellets were harvested and extracted as described above. PDHK-4 was purified by a batch method utilising Ni-NTA agarose beads (Quiagen). The PDHK-4 eluted by addition of 500 mM imidazole was ˜95% pure.
as §1, §2

- pKd (PDHK2): 8.37
- pKd (PDHK4): 7.21
SMILES: Cc1cc(C)n2c1C=C1C=CC(CCC(=O)N3C[C@H](C)N(C(=O)[C@@](C)(O)C(F)(F)F)C[C@H]3C)=[N+]1[B-]2(F)F
